pIC50, pKi: −log10 of the molar value.

Chains of the proteins cited; added tags and fusions are not shown.
UniProt Q07817, whole entry: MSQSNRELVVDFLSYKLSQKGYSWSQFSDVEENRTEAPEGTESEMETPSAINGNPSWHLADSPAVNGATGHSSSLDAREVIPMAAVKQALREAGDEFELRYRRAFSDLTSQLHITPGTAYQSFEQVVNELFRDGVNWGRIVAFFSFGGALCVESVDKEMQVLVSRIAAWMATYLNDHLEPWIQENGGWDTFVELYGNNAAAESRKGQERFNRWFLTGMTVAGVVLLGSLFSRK

From ChEMBL document CHEMBL2157965, “Structure-based design of potent Bcl-2/Bcl-xL inhibitors with strong in vivo antitumor activity” (J Med Chem, 2012) come the findings set out here.

Assay [1] in a line: Inhibition of human N-terminal His6-tagged Bcl2 isoform 2 expressed in Escherichia coli BL21(DE3) assessed as inhibition of Fluorescein-labeled BIM binding after 1 to 2 hrs by fluorescence polarization assay.
Assay [2] addresses Bcl-2-like protein 1 (Homo sapiens, UniProt Q07817). The assay is described as follows: Inhibition of human N-terminal His8-tagged Bcl-XL expressed in Escherichia coli BL21(DE3) assessed as inhibition of Fluorescein-labeled BAK binding after 1 to 2 hrs by fluorescence polarization assay.
Assay [3] can be described thus: Antiproliferative activity against human NCI-H146 cells after 4 days by WST8 assay. It is filed as functional, cell-based. Particulars: NCI-H146, 96 h. In a few lines:
(§1)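 Growth inhibition was measured as described previously. IC50 values come from growth curves.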

Assay [4] relates to NCI-H1417. The experiment in a line: Antiproliferative activity against human NCI-H1417 cells after 4 days by WST8 assay. Format: functional, cell-based. Particulars: NCI-H1417, 96 h. The procedure, abridged:
as §1

Assay [5] has as its system NCI-H1963. The experiment in a line: Antiproliferative activity against human NCI-H1963 cells after 4 days by WST8 assay. To be noted: NCI-H1963, 96 h. It is filed as functional, cell-based. The procedure, abridged:
as §1

As to `Cc1c(C(=O)NCCCN2CCN(C)CC2)c(-c2cccc(N3CCN(c4ccc(C(=O)NS(=O)(=O)c5ccc(N[C@H](CCN(C)C)CSc6ccccc6)c([N+](=O)[O-])c5)cc4)CC3)c2)c(-c2ccc(Cl)cc2)n1C`, the pIC50 in assay [1] is 7.54. In assay [2], the pIC50 was 8.30 and the pKi was 8.89.
For the compound `Cc1c(C(=O)O)c(-c2cccc(N3CCN(c4ccc(NS(=O)(=O)c5ccc(N[C@H](CCN(C)C)CSc6ccccc6)c([N+](=O)[O-])c5)cc4)CC3)c2)c(-c2ccc(Cl)cc2)n1C`, the values for the pIC50 in assay [3], in assay [4] and in assay [5] were 7.21, 7.03 and 7.72, respectively.
